# Yeast mating assay B: variants of the scFv Ab-14

The target is the same throughout: PDVDLGDISGINAS, from the HR2 region of SARS-CoV-2 spike.

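The starting antibody came from a phage panning campaign against this peptide. This is the validation round: designs drawn from the data on random variants, tested in the same kind of assay. Several design methods are mixed in this list. AlphaSeq pools MATa yeast showing the antibodies with MATalpha yeast showing the peptide. After mating in shaken culture at 30 °C for 16 h, diploids were selected and their barcode pairs sequenced. Scores were corrected for input abundance and mapped to Kd with protein pairs of known affinity run in the same pool. Mating was done six times.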

Each scFv is VH, a (GGGGS)3 linker, VL, as in the parent Ab-14, and differs from it in the CDRs of the heavy chain only.
VH: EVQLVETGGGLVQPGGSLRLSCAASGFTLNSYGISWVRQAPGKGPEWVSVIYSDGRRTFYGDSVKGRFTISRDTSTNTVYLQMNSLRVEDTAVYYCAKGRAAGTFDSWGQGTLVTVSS
VL: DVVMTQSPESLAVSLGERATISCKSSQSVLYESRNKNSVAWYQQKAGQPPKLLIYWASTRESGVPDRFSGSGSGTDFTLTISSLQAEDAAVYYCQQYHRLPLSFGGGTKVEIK

Each variant is given by its three heavy chain CDRs, as the data file delimits them; those of the parent are GFTLNSYGIS, VIYSDGRRTFYGDSVK, GRAAGTFDS. Values are log10 of the apparent Kd in nM; lower means stronger binding. A mean of the replicates is given; it leaves out those without a signal. A pair that was not seen in any replicate is written "nd"; this usually means weak binding, but a binder can also be missed. Nonspecific signal, from three strains lacking the peptide, appeared in 1% of pairings of all heavy chain designs, centred on 2.08 (5% of these signals below 0.84); values are not corrected for it. The control count says in how many pairings with the empty strains this scFv gave a signal. A sequence measured in both rounds can read differently, since the two assays cover different ranges. The authors' rule: three or more of the six replicates give a measured affinity, fewer mean a poor binder. The parent sequence was in this pool as ten entries: three were never detected, three once, and four in most replicates, with averages from 0.34 to 2.37.

Variant GFKLNEYGIS | VIYSDGRRTQYMDSVK | GRAAGTFDS showed 1.74 (6 of 6 replicates; controls 1 of 18).
Variant GFSLNSYGIS | VIYSDGRRTFYGDNVK | GQAAGTFDK showed 0.73 (6 of 6 replicates; controls 0 of 18).
Variant GFHLNSYGIS | VIYSDGRRTFYDDSVK | GQLAGTFDS showed 1.38 (2 of 6 replicates; controls 0 of 18).
Variant GFTLNSYGIS | VIYSDGRRTFYGDSVK | RRLAGTFDS showed nd (0 of 6 replicates; controls 0 of 18).
Variant GFTLNDYGIS | VIYSDGRRTFYGDSFK | GRAEGTWDS showed 0.53 (6 of 6 replicates; controls 0 of 18).
Variant GFDLNEYGIS | VIYADGRRTFYTDSVK | GNLAGTFDQ showed -0.65 (6 of 6 replicates; controls 1 of 18).
Variant GFDLNSYGIS | VIYSDGRRTFYGDPVK | GKTAGTFDA showed 0.22 (6 of 6 replicates; controls 0 of 18).
Variant GFSLTSYGIS | VIYADGRRTFYGDSVK | GRAAGTFDS showed -0.21 (6 of 6 replicates; controls 0 of 18).
Variant GFSLNMYGIS | VIYSDGRRTFYGDSVK | GKAAGTFDS showed 1.27 (6 of 6 replicates; controls 0 of 18).
Variant GFDLEDYGIS | VIYADGRRTAYIDSVK | GEVAGTFDS showed -0.41 (6 of 6 replicates; controls 1 of 18).
Variant GFDIEEYGIS | VIYADGVRTMYADDVK | GNSKTYSLM showed nd (0 of 6 replicates; controls 0 of 18).
Variant GFNLNSYGIS | VIYSDGRRTYYGDSVK | GRTAGTFDS showed 0.97 (6 of 6 replicates; controls 1 of 18).
Variant GFDLNEYGIS | VIYSDGRRTFYGDAVK | GRAAGTFDM showed 0.64 (6 of 6 replicates; controls 0 of 18).
Variant GETLNSYGIS | VIYSDGRRTFYGDSVK | GDAAGTFDL showed 2.56 (2 of 6 replicates; controls 1 of 18).
Variant GFTLNDYGIS | VIYMDGRRTQYIDSVK | GRAAGTFDS showed 1.80 (1 of 6 replicates; controls 0 of 18).
Variant GFDLQEYGIS | VIYADGKRRAYENKVK | GGSVRSVVI showed nd (0 of 6 replicates; controls 0 of 18).
Variant GFNLNEYGIS | VIYADGKRTFYSNSVK | GEAAGTFDV showed nd (0 of 6 replicates; controls 0 of 18).
Variant GFTLNSYGIS | VIYSDGRRTFYGDSVK | QRAAGTFDL showed nd (0 of 6 replicates; controls 0 of 18).
Variant GNDLEEYGIS | VIYADGMRTAAVDSVK | GDQSGTVVY showed nd (0 of 6 replicates; controls 0 of 18).
Variant GFGLDEYGIS | VIYADGMRAQYATNVK | GYQAGVFST showed nd (0 of 6 replicates; controls 0 of 18).
Variant GFELNSYGIS | VIYSDGKRTFYGDSVK | GQAAGTFDS showed 1.07 (6 of 6 replicates; controls 0 of 18).
Variant GFSLNDYGIS | VIYSDGRRTYYGDSVK | GRAAGTFIS showed 4.37 (1 of 6 replicates; controls 1 of 18).
Variant GFTLESYGIS | VIYSDGQRTFYGDSVK | GRAGSTFDS showed nd (0 of 6 replicates; controls 0 of 18).
Variant GFDLDEYGIS | VIYADGMRTAYIDSVK | GTNAGTFDV showed -0.51 (6 of 6 replicates; controls 0 of 18).
Variant GFDLNEYGIS | VIYADGVRTFYSDSVK | GAVAGTFDN showed -0.25 (6 of 6 replicates; controls 0 of 18).
Variant GEDLDEYGIS | VIYADGRRVVYQDQFK | GELAGTFDQ showed 0.30 (3 of 6 replicates; controls 0 of 18).
Variant KFDLNSYGIS | VIYSDGRRTFYGDSVK | GRMAGTFDS showed 1.74 (5 of 6 replicates; controls 0 of 18).
Variant GFDIDEYGIS | VIYADGRRTAYKPKVK | GNNTGLVFI showed nd (0 of 6 replicates; controls 0 of 18).
Variant GFTLNSYGIS | VIYSDGRRTFYHDSVK | GIAAGTFES showed nd (0 of 6 replicates; controls 0 of 18).
Variant GFTINSYGIS | VIYSDGRRTAYQDSVK | GRAPGTFDS showed 2.75 (5 of 6 replicates; controls 5 of 18).
Variant GFDLNEYGIS | VIYADGRRTAYADSVK | GQNAGTFDM showed -0.38 (6 of 6 replicates; controls 0 of 18).

The 5 strongest on average among those seen in every replicate, once more:

CDR-H1	CDR-H2	CDR-H3	mean, log10 nM	detected	empty controls
GFDLNEYGIS	VIYADGRRTFYTDSVK	GNLAGTFDQ	-0.65	6 of 6	1 of 18
GFDLDEYGIS	VIYADGMRTAYIDSVK	GTNAGTFDV	-0.51	6 of 6	0 of 18
GFDLEDYGIS	VIYADGRRTAYIDSVK	GEVAGTFDS	-0.41	6 of 6	1 of 18
GFDLNEYGIS	VIYADGRRTAYADSVK	GQNAGTFDM	-0.38	6 of 6	0 of 18
GFDLNEYGIS	VIYADGVRTFYSDSVK	GAVAGTFDN	-0.25	6 of 6	0 of 18

Data: MIT Lincoln Laboratory AlphaSeq set, Li et al. 2023, doi:10.1038/s41467-023-39022-2, as distributed in FLAb.